Experimental data published in US11975009B2, “Use of zinc porphyrin as an antimicrobial” (ZNABLE LLC, priority 2022, dated 2024).

System: PsA PAO1 biofilm
Test: PAO1 biofilm on coupons, LIVE/DEAD stain, confocal microscopy
Format: cell-based, Pseudomonas aeruginosa
Settings: 4 μg/mL for 24 h
Description: FIG. 2A: ZnPor (alone) stained biofilm. […] Length of size bar: […].
FIGS. 15A-15B show the biofilms of PAO1 treated with various concentrations of ZnPor (II) and in combination with PEV2 phage. Biofilms of strain PAO1 were grown on coupons cut from polyethylene in MSG media for approximately 16-18 hours. Overnight media was replaced with fresh PBS and were treated with (FIG. 15B) ZnPor (II) only at concentrations of 5, 10 or 25 μg/mL, and incubated for 2 h, (FIG. 15A) phage PEV2 only (MOI=10:1) for 4 h, or (FIG. 15B) ZnPor (II) treatment for 2 h followed by the addition of phage PEV2 (MOI of 10:1) and incubated for an additional 4 h. Coupons were gently washed in distilled water and were treated with LIVE/DEAD™ stain. All coupons were imaged using confocal laser scanning […] microscopy (CLSM) at 60×. Green=LIVE Red=DEAD.
PAO1 was grown overnight in MSG at 37 C with shaking. CDC Bioreactors with PE coupons were inoculated to a final OD of 0.15 in cation adjusted Mueller Hinton broth. Biofilms were grown 16-18 h at 37 degrees C. with 50 rpm stirring. Control biofilm is shown (FIG. 20A). All overnight media in bioreactors were replaced with fresh PBS. Bioreactors treated with ZnPor (II) at 4 μg/mL were left to incubate for 2 hours without stirring. Bioreactors treated with either whole PEV2 phage or the purified DNA genome of PEV2 were incubated for 24 hours without stirring. […]

Question: With “meso-5,10,15-tris(N-methyl-4-pyridyl)-20-(pentafluorophenyl)porphyrinatozinc(II), tris-p-toluene sulfonate [ZnPor]” as the substance, how does the biofilm state read?
Answer: The biofilm state was “more than a monolayer of cells, many not dead”.
